Only a part is listed here, and it is no random draw. Inconclusive results are not listed. Calls of active or inactive are those of the source. Calls follow the shape of the dose curve; as a rule, active = well fitted inhibition curve with a large enough effect in the polarisation, with a control signal flat (not every such curve was filed as active); inconclusive = small, poorly fitted or top-dose-only effect, or effect the other way, or a change in a side signal; inactive = no such curve, though single readings can be large or run the other way; the % refers to the polarisation.
% is scaled to controls: 0 for no effect and ±100 for the full control effect.

Sequences of proteins named here, by UniProt entry; tags and fusion partners are left off.
UniProt Q13526, whole entry: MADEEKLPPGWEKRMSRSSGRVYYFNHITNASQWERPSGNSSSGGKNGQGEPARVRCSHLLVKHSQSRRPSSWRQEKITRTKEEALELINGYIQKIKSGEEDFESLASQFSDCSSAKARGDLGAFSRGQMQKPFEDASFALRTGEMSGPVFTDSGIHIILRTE

The target in this test is Peptidyl-prolyl cis-trans isomerase NIMA-interacting 1 (Homo sapiens) (UniProt Q13526). The test is described as follows: qHTS Assay to Find Inhibitors of Pin1. The conditions noted are these: Pin1 FP peptide displacement, HiFluor488, 10 min; at 115 µM (top of the series).
As to `CCC(=O)N(c1ccccc1)C1(COC)CCN(CCn2nnn(CC)c2=O)CC1`, the activity, negative = inhibition was inactive: -10.9%.

Regarding `CCC(=O)N(c1ccccc1)C1(COC)CCN(CCc2cccs2)CC1`, the activity, negative = inhibition was inactive: -23%.

For the origin of these results see PubChem BioAssay AID504891 (National Center for Advancing Translational Sciences (NCATS), 2011).
